pIC50: −log10 of the molar value.
Biological target: recombinant human ACC2 (Homo sapiens (Human), UniProt O00763)
Assay: Measurement of inhibitory activity on human ACC2 (MALDI-TOF MS, conversion of acetyl CoA to malonyl CoA)
Type: biochemical
Conditions: recombinant human ACC2, room temperature, 1 to 3 hours
Source text: After a cDNA encoding human ACC2 (27 amino acid residue to 2458 amino acid residues from the N-terminus) was cloned from human kidney cDNA library (Clontech), human ACC2 gene containing His-tag sequence at 5′ terminus was inserted into pFastBac1 (Invitrogen). Recombinant baculovirus was generated using Bac-to-Bac baculovirus expression system (Invitrogen) according to the manufacturer's protocol. To express human ACC2, Sf-9 cells were infected with recombinant baculovirus. After infected cells were disrupted, the filtrated lysate was subjected to Ni-affinity chromatography and anion-exchange chromatography. The fractions containing human ACC2 protein were pooled as recombinant human ACC2 solution.
Recombinant human ACC1 and recombinant human ACC2, which were prepared by the method mentioned above, were preincubated with assay buffer solution (50 mM HEPES-KOH (pH 7.4), 10 mM magnesium chloride, 6-10 mM potassium citrate, 4 mM reduced form of glutathione, 1.5 mg/ml bovine serum albumin) for one hour. […] Then, after the samples were cocrystallized with CHCA (α-cyano-4-hydroxy cinnamic acid) matrices on MALDI target plate, by using the matrix assist laser […] time-of-flight mass spectrometer (MALDI-TOF MS), samples were measured in reflector negative mode. […]

Chains of the proteins cited; added tags and fusions are not shown. Residues count along the entry.
UniProt O00763, 27-2458: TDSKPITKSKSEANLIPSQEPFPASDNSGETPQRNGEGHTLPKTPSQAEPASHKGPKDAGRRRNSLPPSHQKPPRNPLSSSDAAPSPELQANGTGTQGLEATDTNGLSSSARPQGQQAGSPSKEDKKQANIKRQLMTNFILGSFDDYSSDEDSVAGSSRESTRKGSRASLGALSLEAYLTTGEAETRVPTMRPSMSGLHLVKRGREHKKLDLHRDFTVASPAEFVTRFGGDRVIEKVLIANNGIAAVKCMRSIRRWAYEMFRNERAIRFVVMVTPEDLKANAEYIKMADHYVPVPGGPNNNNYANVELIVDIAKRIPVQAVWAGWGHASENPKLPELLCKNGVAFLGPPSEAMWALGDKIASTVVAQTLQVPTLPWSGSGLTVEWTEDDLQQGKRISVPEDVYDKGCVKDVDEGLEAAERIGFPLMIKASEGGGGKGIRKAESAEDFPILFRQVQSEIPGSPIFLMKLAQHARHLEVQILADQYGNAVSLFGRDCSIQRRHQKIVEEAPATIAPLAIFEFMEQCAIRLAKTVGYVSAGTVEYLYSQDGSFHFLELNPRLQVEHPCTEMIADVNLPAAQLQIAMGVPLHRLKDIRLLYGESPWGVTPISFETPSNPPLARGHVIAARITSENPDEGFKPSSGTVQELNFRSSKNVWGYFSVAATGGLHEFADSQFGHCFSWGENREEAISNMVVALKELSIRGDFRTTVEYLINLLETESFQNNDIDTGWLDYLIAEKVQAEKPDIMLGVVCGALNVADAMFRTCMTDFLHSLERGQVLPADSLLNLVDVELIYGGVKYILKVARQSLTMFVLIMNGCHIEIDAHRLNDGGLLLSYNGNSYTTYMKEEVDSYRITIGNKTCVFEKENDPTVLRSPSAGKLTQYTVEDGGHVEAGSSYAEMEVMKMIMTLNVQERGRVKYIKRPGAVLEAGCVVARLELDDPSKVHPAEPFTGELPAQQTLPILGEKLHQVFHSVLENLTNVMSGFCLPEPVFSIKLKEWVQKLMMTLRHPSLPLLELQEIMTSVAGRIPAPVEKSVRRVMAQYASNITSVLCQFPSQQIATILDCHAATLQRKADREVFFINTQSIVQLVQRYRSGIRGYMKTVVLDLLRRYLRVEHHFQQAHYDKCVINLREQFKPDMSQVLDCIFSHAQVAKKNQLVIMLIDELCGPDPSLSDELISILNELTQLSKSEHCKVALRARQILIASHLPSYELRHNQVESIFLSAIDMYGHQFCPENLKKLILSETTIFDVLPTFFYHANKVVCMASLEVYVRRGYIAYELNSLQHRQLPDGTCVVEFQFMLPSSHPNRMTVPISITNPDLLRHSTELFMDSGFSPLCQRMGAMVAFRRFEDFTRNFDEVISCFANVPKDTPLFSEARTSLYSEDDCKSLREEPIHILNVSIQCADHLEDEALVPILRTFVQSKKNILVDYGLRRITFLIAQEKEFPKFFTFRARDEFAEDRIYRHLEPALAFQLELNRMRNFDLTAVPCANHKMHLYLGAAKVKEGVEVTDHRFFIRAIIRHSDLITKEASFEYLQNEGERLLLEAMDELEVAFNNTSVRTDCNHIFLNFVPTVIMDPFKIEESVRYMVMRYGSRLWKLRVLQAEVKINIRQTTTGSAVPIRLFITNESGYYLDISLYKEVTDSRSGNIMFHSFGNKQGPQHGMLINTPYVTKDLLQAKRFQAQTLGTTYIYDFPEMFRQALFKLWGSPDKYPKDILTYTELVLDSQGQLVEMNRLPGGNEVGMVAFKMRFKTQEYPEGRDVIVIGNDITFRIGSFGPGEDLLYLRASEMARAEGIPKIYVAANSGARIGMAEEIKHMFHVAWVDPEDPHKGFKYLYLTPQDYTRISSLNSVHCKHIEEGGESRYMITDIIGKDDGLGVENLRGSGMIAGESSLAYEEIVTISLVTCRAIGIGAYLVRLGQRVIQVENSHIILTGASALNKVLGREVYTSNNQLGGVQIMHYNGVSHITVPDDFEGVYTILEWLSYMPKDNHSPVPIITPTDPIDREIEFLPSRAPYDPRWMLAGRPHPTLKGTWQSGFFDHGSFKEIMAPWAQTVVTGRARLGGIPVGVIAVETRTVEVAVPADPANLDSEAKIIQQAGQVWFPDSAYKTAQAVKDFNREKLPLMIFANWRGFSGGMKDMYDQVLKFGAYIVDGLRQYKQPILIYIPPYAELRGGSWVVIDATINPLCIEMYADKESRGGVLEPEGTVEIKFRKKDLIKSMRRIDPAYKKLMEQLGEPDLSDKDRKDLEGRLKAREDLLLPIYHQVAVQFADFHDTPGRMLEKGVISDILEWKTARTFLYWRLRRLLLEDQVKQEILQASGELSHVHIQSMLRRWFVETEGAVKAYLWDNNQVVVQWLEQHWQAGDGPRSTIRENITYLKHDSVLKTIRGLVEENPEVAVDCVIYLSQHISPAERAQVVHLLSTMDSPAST

pIC50	SMILES
8.29	CC(=O)N[C@@H](C)CO[C@H]1CC[C@H](Oc2nc3c(F)cc(OC4CCC4)cc3n2C)CC1 [Example I-194]
8.18	CC(=O)N[C@@H](C)CO[C@H]1CC[C@H](Oc2nc3c(Cl)cc(OC4CC4)cc3n2C)CC1 [Example I-200]

Reference: US10233156B2, “9-membered fused ring derivative” (Shionogi & Co., Ltd., priority 2015, dated 2019)
